# miR-21 reporter: miR-21 reporter, rising signal | HeLa miR-21 FLuc reporter, luciferase, 48 h | Potency, µM (doses to about 38.3 µM), inactives show at the top dose reporter change, positive = more light | 340,000 tested, under 10 active | AID 2288; active = well fitted rising curve with a large enough effect; inconclusive = small, poorly fitted or top-dose-only effect; inactive = no such curve, though single readings can be large or run the other way;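 note: % of control where 0% means no effect; miR-21 action dims this reporter so a rising signal means less miR-21 action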
#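 Luminescence from a firefly luciferase reporter carrying a miR-21 binding site downstream, stably expressed under a CMV promoter in HeLa cells that make miR-21 endogenously, reports miRNA modulation after 48 h compound exposure up to approximately 40uM final.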
# IL2 activator: activates IL-2 in a cell-based reporter assay. actives 0.065% (n = 360,000). AID 652025. activation, % (series mostly up to about 46 µM). IL-2 activation reporter assay, cell-based qHTS; stimulated with anti-CD3/CD4/CD28 beads; in transgenic mouse T cells; in the data active = activation above about 50%; inconclusive = mostly about 30% to 49%; note: 0% is about no effect
#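 Unstimulated transgenic mouse T cells preincubated 60 min with compound, then stimulated with anti-CD3/anti-CD4-coated beads plus anti-CD28 for 18 h at 37 degrees C. IL-2 response read as EGFP and DsRed fluorescence by plate cytometry.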
# TCR act: activators of T cell receptors; primary human leukocytes, anti-CD3, IL-2 HTRF, 48 h; Potency, µM (top dose mostly 9.22 µM), inactives show at the highest dose activation of IL-2 secretion, actives largely listed as activators; 330,000 tested, under 10 active; note: % of control where 0% means no effect
#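 Using a-CD3 beads without co-stimulation, primary human leukocytes were exposed to compounds for 48 hr. An HTRF IL-2 kit measured the cytokine, with europium-to-d2 energy transfer producing emission at 665nm upon 320nm excitation.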
# RXFP1 ag: agonists of human relaxin receptor RXFP1 | HEK293T-RXFP1 cAMP TR-FRET, 30 min; response scale: percent of porcine relaxin response, buffer zero | actives 0.3% (n = 370,000) | Q9HBX9 | Potency, µM (doses to about 57.5 µM), without a hit: top-dose activation, most hits filed as activators; note: potency is the fitted concentration of half-maximal effect; % is set by controls: 0 for no effect and ±100 for the full control effect; nearly all actives have a fitted effect of over 60% in size
#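 HEK293 cells stably expressing RXFP1, treated 30 min at 37C with compounds plus PDE4 inhibitor Ro 20174; cAMP measured by HTRF TR-FRET. Normalized to buffer and 29 nM porcine relaxin; EC50 by Hill fit.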
# PINK1 modulator: PINK1 expression modulation | actives 0.2% (n = 410,000) | PINK1 immunofluorescence, high-content cytometry, 24 h | Potency, µM (titrated, usually from 76.6 µM), for inactives: at the top dose activation (PINK1 increase), hits mostly activators; active = well fitted activation curve with a large enough effect; inconclusive = small, poorly fitted or top-dose-only effect; cell line not stated here; note: potency is the fitted concentration of half-maximal effect; % of control where 0% means no effect; nearly all actives have a fitted effect of over 65% in size
#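 Decision-based qHTS: stable cells, 24 h exposure to five compound concentrations, CCCP as control. Fixed cells stained for PINK1 plus nuclear, mitochondrial and cell markers, cytometer read.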
# RXFP1 antagonist: RXFP1 (human) relaxin receptor antagonism | Q9HBX9 | HEK293-RXFP1, relaxin-stimulated cAMP HTRF, 30 min; hits give low values | activity change, negative = inhibition, % at 57.5 µM | actives 0.59% (n = 350,000);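 active = activity change of -60% or lower, but not beyond a set lower limit; inconclusive = change between -60% and -40%, or beyond the set limit; inactive = change above -40%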; note: % is set by controls: 0 for no effect and ±100 for the full control effect
# Active calls of the source: *; ? = inconclusive; . = no result; [ ] = another dose, or the depositor's remark. Only some compounds are listed: those with a hit (about 0.78% of all), similar ones and a draw of the others. Unless noted, calls come from the whole dose curve; as a rule, active = well fitted curve in the direction sought with a large enough effect; inconclusive = small, poorly fitted or top-dose-only effect, or another doubt; inactive = no such curve, though single readings can be large; an effect the other way counts as inactive or inconclusive.
entry | SMILES | miR-21 reporter | IL2 activator | TCR act
1 | O=C(Nc1nc2c(F)cc(F)cc2s1)c1ccc(S(=O)(=O)N2CCc3ccccc32)cc1 | 1.5% | . | .
2 | OCCN1CCN(Cc2ccc3c(c2)CN(Cc2cccc4ncccc24)CCO3)CC1 | . | . | .
3 | NC1=NC(=O)/C(=C/c2ccccc2OCC(=O)Nc2ccc(F)cc2)S1 | . | -0.3 | 1.2%[46.1 µM]
4 | O=C(COc1ccccc1/C=C1\SC(=S)NC1=O)Nc1ccc(F)cc1 | . | -0.8 | 1.1%[46.1 µM]
5 | CSc1ncccc1C(=O)NCC1Cc2cc(F)cc(-c3cncnc3)c2O1 (stereo not given) | . | . | .
6 | Fc1ccccc1-c1n[nH]c(=S)n1/N=C/c1c[nH]c2ccccc12 | 13.7% | -4.0 | -7.3%
7 | CN(C)[C@@H]1C(=O)C(C(N)=O)=C(O)[C@@]2(O)C(=O)C3=C(O)c4c(O)cccc4C[C@H]3C[C@@H]12 | . | . | .
8 | Cc1nc2cccnc2n1-c1cccc(C(=O)N2CCN(c3cccc(Cl)c3)CC2)c1 | ? | . | .
9 | CC1CN(CC(=O)N2CCN(Cc3nccn3C)CC2)Cc2cc(Cl)ccc2O1 (stereo not given) | . | . | .
10 | O=C(NCC(c1cccs1)N1CCOCC1)c1cc(=O)[nH]c2ccccc12 (stereo not given) | . | -0.3 | -2.0%

entry | RXFP1 ag | PINK1 modulator | RXFP1 antagonist
1 | -0.2% | 15.8µM* | .
2 | . | -0.5% | .
3 | . | 12.0% | 1.8
4 | . | 31.6µM* | -69.5*
5 | . | 0.6% | .
6 | 0.5% | 0.6% | -109.2*
7 | . | . | -6.0
8 | 18.9% | 1.0% | -63.8*
9 | . | -0.9% | .
10 | 0.6% | 1.2% | -77.1*

# (cont.)
entry | SMILES | miR-21 reporter | IL2 activator | TCR act
11 | Cc1c(C(=O)NCC(C)(C)N2CCOCC2)cnn1-c1ncc2c(n1)-c1ccccc1CC2 | . | . | .
12 | CCc1nc(CN2CCOc3ccc(C(O)C4CCCCC4)cc3C2)c(C)[nH]1 (stereo not given) | . | . | .
13 | CCCc1c(C)c2ccc(O)c(CN3CCN(c4ccc(F)cc4)CC3)c2oc1=O | 0.0% | . | .
14 | Cc1cc(O)c(CN2CCN(c3ccc(F)cc3)CC2)c2oc(=O)cc(C)c12 | 3.2% | . | .
15 | N#C/C(=C\c1cccc(Oc2ccccc2)c1)C(=O)N1CCOCC1 | -6.9% | -6.3 | 1.2%
16 | COc1cc(/C=C(\C#N)C(=O)N2CCOCC2)cc(Br)c1O | -1.3% | 0.7 | -3.6%[46.1 µM]
17 | Cc1ccc(OC(C)C(=O)Nc2nonc2-c2ccc(Br)cc2)cc1C (stereo not given) | -10.8% | . | .
18 | Cc1cccc(OC(C)C(=O)Nc2nonc2-c2ccc(Br)cc2)c1C (stereo not given) | -0.1% | . | .
19 | CN(C(=O)CSc1nc2scc(-c3ccccc3)c2c(=O)[nH]1)c1ccccc1 | . | -0.6 | 1.1%
20 | CN(CCC#N)C(=O)CSc1nc2scc(-c3ccccc3)c2c(=O)[nH]1 | -2.9% | -1.7 | 2.8%[46.1 µM]

entry | RXFP1 ag | PINK1 modulator | RXFP1 antagonist
11 | . | 0.0% | .
12 | . | 1.9% | .
13 | 0.3% | 1.2% | -13.9
14 | 25.1µM* | 0.2% | -9.8
15 | -0.5% | 7.4% | -101.8*
16 | 3.0% | 0.9% | -1.4
17 | -2.2% | 22.4µM* | -13.6
18 | 24.2% | 17.9% | -12.0
19 | . | -1.4% | -64.3*
20 | 1.9% | 1.4% | .

# Grouped by structure, the compounds so far containing an aryl thioether with sulfur outside any ring
entry | SMILES | miR-21 reporter | IL2 activator | TCR act
5 | CSc1ncccc1C(=O)NCC1Cc2cc(F)cc(-c3cncnc3)c2O1 (stereo not given) | . | . | .
19 | CN(C(=O)CSc1nc2scc(-c3ccccc3)c2c(=O)[nH]1)c1ccccc1 | . | -0.6 | 1.1%
20 | CN(CCC#N)C(=O)CSc1nc2scc(-c3ccccc3)c2c(=O)[nH]1 | -2.9% | -1.7 | 2.8%[46.1 µM]

entry | RXFP1 ag | PINK1 modulator | RXFP1 antagonist
5 | . | 0.6% | .
19 | . | -1.4% | -64.3*
20 | 1.9% | 1.4% | .

# New compounds follow:
entry | SMILES | miR-21 reporter | IL2 activator | TCR act
21 | CC(=O)N1CCC[C@H]1C(=O)NCC1Cc2cc(C)cc(-c3ccc(Cl)cc3)c2O1 (stereo not given in full) | . | . | .
22 | CO[C@H]1[C@H](NC(=O)c2ccco2)c2ccccc2C12CCN(Cc1cc(Cl)ccc1O)CC2 | . | . | .
23 | O=C(Nc1ccc2nc(SCC(=O)N3CCOCC3)sc2c1)c1ccc(Br)cc1 | 5.8% | . | .
24 | O=C(Nc1ccc2nc(SCC(=O)N3CCOCC3)sc2c1)c1cccc(Br)c1 | ? | . | .
25 | O=C(Nc1ccc2nc(SCC(=O)N3CCOCC3)sc2c1)c1ccc(Cl)cc1 | 20.3% | . | .
26 | O=C(Nc1ccc2nc(SCC(=O)N3CCCC3)sc2c1)c1cccc(F)c1 | ? | . | .
27 | O=C(Nc1ccc2nc(SCC(=O)N3CCOCC3)sc2c1)c1ccccc1Cl | 19.9% | . | .
28 | COc1cccc(C(=O)Nc2ccc3nc(SCC(=O)N4CCOCC4)sc3c2)c1 | 18.7% | . | .

entry | RXFP1 ag | PINK1 modulator | RXFP1 antagonist
21 | . | 0.7% | .
22 | . | 0.3% | .
23 | 11.5% | 4.5% | -19.1
24 | 1.1% | -0.9% | -97.8*
25 | 10.7% | 0.9% | ?
26 | 6.4% | 9.2% | -100.8*
27 | -0.1% | 1.1% | -63.7*
28 | -1.0% | 2.2% | -96.0*

# Bioassay records: PubChem, National Center for Advancing Translational Sciences (NCATS)
